Values of other authors in US20250041322A1, “HEAT STRESS RELIEVING AGENT” (Hayashibara Co., Ltd., priority 2018, published 2025).

Q: Which “Water solubility, comparison in words” value does the source give for α-glycosyl hesperidin here?
A: more water-soluble than hesperidin and 7-O-β-glucosyl hesperetin
